Data reported in article PMC11254172 (International Journal for Parasitology: Drugs and Drug …, 2024).
Where “and” joins values, the source holds several entries; their conditions need not be identical. Equal values may be shown once. Read-outs that look alike come from different tables or passages of the source.

What was measured:
[1] = tested on: T. gondii TgShSp1 oocysts; settings: for Number of pregnant mice / Fertility rate (%) / Total number of pups/group: CD1 mice, 100 TgShSp1 oocysts; for Postnatal mortality rate / Neonatal mortality rate: pups; for Postnatal mortality rate: until 30 days p.p.; for Neonatal mortality rate: within first 2 days after birth; for Number of seronegative mice: n = 12; for Seropositive for Tg (number of mice): 12 mice/group, serum IgG ELISA
[2] = tested on: N. caninum NcSpain-7 tachyzoites; settings: in vivo
[3] = tested on: human foreskin fibroblasts (HFF); settings: resazurin reduction assay
[4] = 20 mg/kg/day x 5 days, real-time PCR

In the case of `CC(C)(CO)Cn1nc(-c2ccc3cc(OC4CC4)ccc3c2)c(C(N)=O)c1N` [BKI-1708], the “Vertical transmission rate (%)” value ([1]; 5 mg/kg/day oral x 5 days) was 98%, the “Number of pregnant mice” value ([1]; 5 mg/kg/day oral x 5 days from 2 days post-infection) was 11/12 and the “Fertility rate (%)” value ([1]; 5 mg/kg/day oral x 5 days) was 91.6%. The “Total number of pups/group” value ([1]; 5 mg/kg/day oral x 5 days) was 132, the Postnatal mortality rate ([1]; 5 mg/kg/day oral x 5 days) was 1.3% and the Neonatal mortality rate ([1]; 5 mg/kg/day oral x 5 days) was 43.1%. For the same molecule, the “Cerebral parasite load in dams and non-pregnant mice vs positive control” value ([1]; 5 mg/kg/day x 5 days, real-time PCR) was “less profoundly diminished”, the “Anti-Toxoplasma IgG titers vs non-treated positive control” value ([1]; 5 mg/kg/day, ELISA) was “similar” and the “Number of seronegative mice” value ([1]; 5 mg/kg/day) was 2. The “Seropositive for Tg (number of mice)” value ([1]; 5 mg/kg) was 10, the “Vertical transmission rate (%)” value ([1]; 20 mg/kg/day oral x 5 days) was 16% and the “Number of pregnant mice” value ([1]; 20 mg/kg/day oral x 5 days from 2 days post-infection) was 7/12. The “Fertility rate (%)” value ([1]; 20 mg/kg/day oral x 5 days) was 58.3%, the “Total number of pups/group” value ([1]; 20 mg/kg/day oral x 5 days) was 90 and the Postnatal mortality rate ([1]; 20 mg/kg/day oral x 5 days) was 1.1%. For the same molecule, the Neonatal mortality rate ([1]; 20 mg/kg/day oral x 5 days) was 0%, the “Reduction of the numbers of congenitally infected pups compared to the controls” value ([1]; 20 mg/kg/day x 5 days, T. gondii) was 84% and the “Cerebral and ocular parasite loads in non-pregnant mice and dams vs control groups” value [1, 4] was “significantly reduced”. The “Cerebral parasite load in dams and non-pregnant mice vs positive control” value [1, 4] was “highly reduced”, the “Anti-Toxoplasma IgG response vs positive control, dams” value ([1]; 20 mg/kg/day, ELISA, dams) was “but not in dams” and the “Anti-Toxoplasma IgG response vs positive control, non-pregnant mice” value ([1]; 20 mg/kg/day, ELISA, non-pregnant mice) was “significantly decreased”. For the same molecule, the “Number of seronegative mice” value ([1]; 20 mg/kg/day) was 1, the “Seropositive for Tg (number of mice)” value ([1]; 20 mg/kg) was 11 and the “Fertility rate (%)” value ([2]; female, BALB/c, mouse) was 57.1%. For the same molecule, the “Number of pregnant mice” value ([2]; female, BALB/c, mouse) was 8/14, the “Total number of pups/group” value ([2]; female, BALB/c, mouse) was 46 and the “Cerebral parasitic burden in pregnant and non-pregnant mice vs positive control” value [2] was “evidently reduced”. For the same molecule, the “Impact of treatment on fertility or reproductive parameters” value [2] was “no impact on fertility or reproductive parameters”, the “Mice in which Neospora-specific IgG could not be detected” value [2] was 2 of the 14 and the Neonatal mortality rate [2] was 8.7%. For the same molecule, the “PCR status of surviving pups” value [2] was “all surviving pups were PCR-negative”, the Postnatal mortality rate [2] was 33% and 33.4% and the “Reduction of the numbers of congenitally infected pups compared to the controls” value [2] was 62%. For the same molecule, the “Seropositive for Nc (number of mice)” value [2] was 12, the “Concentrations at which HFF viability was not impaired (up to)” value [3] was “up to 25 μM” and the “HFF viability not affected” value [3] was greater than 25 µM.
